Results taken from ChEMBL document CHEMBL4033688, “Design, synthesis and anti-tumor activity study of novel histone deacetylase inhibitors containing isatin-based caps and o-phenylenediamine-based zinc binding groups” (Bioorg Med Chem, 2017).

Amino acid sequences for entries named in this document (tags omitted). A change or cut given only in a name is not applied to a line headed by its entry.
UniProt O15379: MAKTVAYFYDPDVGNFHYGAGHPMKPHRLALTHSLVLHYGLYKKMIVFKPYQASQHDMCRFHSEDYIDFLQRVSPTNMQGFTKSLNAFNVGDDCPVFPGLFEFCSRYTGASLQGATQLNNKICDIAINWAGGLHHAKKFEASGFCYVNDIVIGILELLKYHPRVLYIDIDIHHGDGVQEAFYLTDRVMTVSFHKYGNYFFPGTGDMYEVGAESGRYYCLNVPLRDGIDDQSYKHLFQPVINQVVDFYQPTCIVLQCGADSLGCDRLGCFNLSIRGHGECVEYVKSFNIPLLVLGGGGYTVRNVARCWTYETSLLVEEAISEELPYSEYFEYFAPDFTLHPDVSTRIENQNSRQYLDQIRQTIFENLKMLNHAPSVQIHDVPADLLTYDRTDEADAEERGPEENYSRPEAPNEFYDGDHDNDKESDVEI
UniProt Q92769, whole entry: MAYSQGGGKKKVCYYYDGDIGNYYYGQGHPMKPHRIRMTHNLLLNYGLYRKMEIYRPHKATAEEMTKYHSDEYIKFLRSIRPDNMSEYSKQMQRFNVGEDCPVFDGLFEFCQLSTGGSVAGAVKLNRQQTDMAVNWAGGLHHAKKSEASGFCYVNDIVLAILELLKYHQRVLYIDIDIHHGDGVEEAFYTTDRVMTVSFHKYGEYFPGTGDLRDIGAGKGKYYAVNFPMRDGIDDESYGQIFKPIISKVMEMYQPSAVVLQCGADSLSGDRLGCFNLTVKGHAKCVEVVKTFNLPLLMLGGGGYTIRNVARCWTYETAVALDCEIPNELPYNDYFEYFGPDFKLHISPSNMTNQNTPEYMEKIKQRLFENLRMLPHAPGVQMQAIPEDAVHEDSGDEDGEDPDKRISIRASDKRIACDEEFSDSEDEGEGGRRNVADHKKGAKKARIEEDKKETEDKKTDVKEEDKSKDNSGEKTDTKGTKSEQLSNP
UniProt Q13547, whole entry: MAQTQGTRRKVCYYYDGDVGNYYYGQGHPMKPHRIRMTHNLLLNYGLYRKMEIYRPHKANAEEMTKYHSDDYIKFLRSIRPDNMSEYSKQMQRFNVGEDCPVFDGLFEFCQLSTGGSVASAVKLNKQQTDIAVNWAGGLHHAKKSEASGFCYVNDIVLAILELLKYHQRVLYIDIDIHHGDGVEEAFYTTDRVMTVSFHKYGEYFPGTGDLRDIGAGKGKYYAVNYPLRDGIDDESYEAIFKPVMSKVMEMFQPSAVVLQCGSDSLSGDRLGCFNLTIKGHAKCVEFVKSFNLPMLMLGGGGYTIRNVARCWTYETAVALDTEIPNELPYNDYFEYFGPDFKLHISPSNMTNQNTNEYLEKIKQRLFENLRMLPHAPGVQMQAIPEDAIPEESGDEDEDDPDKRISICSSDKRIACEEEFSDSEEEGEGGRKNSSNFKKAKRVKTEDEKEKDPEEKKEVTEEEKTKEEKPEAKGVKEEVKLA

Tests used:
Histone deacetylase 3 = Histone deacetylase 3 (Homo sapiens, UniProt O15379)
Histone deacetylase 2 = Histone deacetylase 2 (Homo sapiens, UniProt Q92769)
Histone deacetylase 1 = Histone deacetylase 1 (Homo sapiens, UniProt Q13547)

SMILES | IC50 (Histone deacetylase 3) [nM] | IC50 (Histone deacetylase 2) [nM] | IC50 (Histone deacetylase 1) [nM]
Nc1ccccc1NC(=O)c1ccc(NC(=O)CCN2C(=O)C3(OCCCO3)c3cc(Cl)ccc32)cc1 | 311 | 256 | 32
Nc1ccccc1NC(=O)c1ccc(NC(=O)CN2C(=O)C3(OCCO3)c3cc(Br)ccc32)cc1 | – | 128 | 46
Nc1ccc(-c2cccs2)cc1NC(=O)c1ccc(CNC(=O)CN2C(=O)C3(OCCCO3)c3cc(Cl)ccc32)cc1 | 152000 | 179 | 23
Nc1ccccc1NC(=O)c1ccc(CNC(=O)CN2C(=O)C3(OCCCO3)c3cc(Cl)ccc32)cc1 | 96 | 223 | 137
Nc1ccccc1NC(=O)c1ccc(NC(=O)CCN2C(=O)C3(OCCCO3)c3cc(Br)ccc32)cc1 | 19 | 26 | 12
